# From PubChem BioAssay AID748 (Sanford-Burnham Center for Chemical Genomics, 2007)
# Only a part is listed here, and it is no random draw. Measured potencies and affinities stand elsewhere. Calls of active or inactive are those of the source.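 How the source made its calls: active means displacement above 50% at 20 µM plus a fluorescence interference ratio under 1.5; inactive means the rest.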
# Biological target: Bcl-2-like protein 10 (Homo sapiens) (UniProt Q9HD36)
# Assay: Bcl-B/TR3 peptide binding disruption – biochemical, fluorescence polarization, FITC-TR3 peptide, selectivity assay for Bfl-1 inhibitor project, primary screen (AID 748);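 further: plate controls were wells without compound for no effect and wells lacking Bcl-B protein for full effect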
# Settings: FP displacement of FITC-TR3 peptide from Bcl-B; at 20 µM; hits give high values
row,SMILES,displacement
1,CCC(CO)(C(=O)OC1CN2CCC1CC2)c1ccccc1 (stereo not given),inactive: -0.3%
2,CCOc1ncccc1C(=O)NCC1(N2CCOCC2)CCCCC1,inactive: -4.4%
3,Fc1ccccc1NC1CCN(Cc2ccccc2)CC1,inactive: 7.8%
4,c1ccc(CN2CCC(Nc3ccccc3)CC2)cc1,inactive: 4.3%
5,N/C(=N\O)c1c(N)no[n+]1[O-],inactive: -2.9%
6,O=C(NCC1(N2CCOCC2)CCCCC1)c1cc(=O)[nH]c2ccccc12,inactive: -1%
7,N#CC1(Nc2ccccc2)CCN(CCc2ccccc2)CC1,inactive: 5.1%
8,COc1ccc(NC2CCN(CCc3ccccc3)CC2)c(OC)c1,inactive: 14.3%
9,O=C(OC1CN2CCC1CC2)C1c2ccccc2Oc2ccccc21 (stereo not given),inactive: 2.8%
10,O=C(NCC1(N2CCOCC2)CCCCC1)c1cc2ccccc2o1,inactive: -6.8%
